Assay results as given in patent US7122651B1, “Nucleic acid molecules encoding opioid growth factor receptors” (priority 1998, dated 2006).

Target: T1, nuclear homogenates of human pancreatic tumor cells (PANC-1) (Homo sapiens, UniProt Q9NZT2)
T1 construct: host or cells: PANC-1; nuclear (P1) homogenates, and P2, P3 and S3 fractions in the fractionation study
T1 sequence (Q9NZT2 1-677): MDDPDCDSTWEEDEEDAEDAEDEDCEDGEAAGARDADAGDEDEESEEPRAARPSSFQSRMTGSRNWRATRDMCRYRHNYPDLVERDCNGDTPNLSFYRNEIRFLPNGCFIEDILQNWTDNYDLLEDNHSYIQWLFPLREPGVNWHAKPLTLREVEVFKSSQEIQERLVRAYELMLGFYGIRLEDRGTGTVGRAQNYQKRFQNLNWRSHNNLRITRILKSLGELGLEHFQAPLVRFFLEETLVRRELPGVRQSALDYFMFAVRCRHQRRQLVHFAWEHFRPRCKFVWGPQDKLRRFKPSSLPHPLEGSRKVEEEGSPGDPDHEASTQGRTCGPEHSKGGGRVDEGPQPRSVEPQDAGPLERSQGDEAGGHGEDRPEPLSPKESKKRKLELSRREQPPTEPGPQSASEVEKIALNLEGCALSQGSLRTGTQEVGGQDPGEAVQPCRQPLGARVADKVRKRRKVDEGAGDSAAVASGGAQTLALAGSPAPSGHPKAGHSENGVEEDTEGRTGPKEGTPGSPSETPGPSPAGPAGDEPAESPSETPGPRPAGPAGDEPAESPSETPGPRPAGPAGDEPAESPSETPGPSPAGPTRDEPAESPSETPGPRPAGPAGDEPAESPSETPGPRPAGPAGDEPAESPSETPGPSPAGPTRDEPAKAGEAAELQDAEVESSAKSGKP
Experiment: Competition for binding of [^3H]-[Met^5]-enkephalin in PANC-1 nuclear homogenates

**Q.** Leucine enkephalin was tested. Which “competition for [^3H][Met^5]-enkephalin binding” value (1 or 2 nM radioligand) did it give?
**A.** Its value is “little or no competition”.

**Q.** What about the IC50/Kd (competition with [^3H]-[Met^5]-enkephalin, at least 2 independent assays) of the same substance?
**A.** Its IC50/Kd is >10^−4.
